This is an account of results in patent US20260248894A1, “COMBINATION THERAPY FOR PRETERM INFANTS” (Oak Hill Bio Ltd, priority 2022, published 2026).

Amino acid sequences for entries named in this document (tags omitted). Chains listed by the source or under a name are the forms on record and can include a tag or linker. Residues count along the entry.
UniProt P05019, 49-118 limits assumed: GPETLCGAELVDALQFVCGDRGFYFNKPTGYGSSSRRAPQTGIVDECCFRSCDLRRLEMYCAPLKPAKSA
UniProt P17936, with tags, fused parts or gaps DEL119-195 limits assumed: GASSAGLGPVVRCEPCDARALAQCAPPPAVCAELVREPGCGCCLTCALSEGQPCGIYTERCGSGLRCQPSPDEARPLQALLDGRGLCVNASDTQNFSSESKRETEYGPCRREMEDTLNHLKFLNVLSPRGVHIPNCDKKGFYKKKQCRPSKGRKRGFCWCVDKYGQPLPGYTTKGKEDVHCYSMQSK

The structures appear in SMILES notation. Some compounds may have been tested in ways that are not shown here.

Data set [1] has as its target rhIGF-1/rhIGFBP-3 drug product (Homo sapiens, UniProt P05019+P17936, DEL119-195). Put plainly: Small-molecule chemical compatibility: small-molecule content post mixing by RP-HPLC-UV or ion chromatography. The settings on record: post mixing with rhIGF-1/rhIGFBP-3 drug product, last specified time point(s). It is filed as physicochemical.
The next data set has as its system insulin. The data set is described as follows: Medication compatibility with insulin, considered in the risk evaluation. The note with it: no compatibility data available with insulin.

Take `CCC(=O)N(c1ccccc1)C1CCN(CCc2ccccc2)CC1`: the “Chemical compatibility for small-molecule content (RP-HPLC)” value in data set [1] was “Yes (Chemical incompatibility was considered to be a loss of the small-molecule content of ~10% or more over the defined testing period)”. Besides, the “expected reaction on the basis of theoretical evaluation and the solution pH” value in the data set on insulin is on record as “a reaction is not expected”.
